Binding of CDR-mutated scFvs to a peptide of the spike HR2 region

Values reported by Engelhart et al. 2022, doi:10.1038/s41597-022-01779-4 (FLAb copy).

Target: peptide PDVDLGDISGINAS, taken from heptad repeat 2 (HR2) of SARS-CoV-2 spike.

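The starting antibody came from a phage panning campaign against this peptide. Library AAYL51 holds single substitutions and randomly drawn double and triple substitutions in the CDRs. Affinity was read by AlphaSeq, a pooled yeast mating assay with surface-displayed partners. Pairs that bind mate more often; barcode pairs of the diploids are counted by sequencing. Each replicate has its own calibration line, from reference interactions of the BCL2 family. There are three technical replicates.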

Parent: Ab-91, a human scFv built as VL, a (GGGGS)3 linker, VH. Only the CDRs of the heavy chain vary.
VL: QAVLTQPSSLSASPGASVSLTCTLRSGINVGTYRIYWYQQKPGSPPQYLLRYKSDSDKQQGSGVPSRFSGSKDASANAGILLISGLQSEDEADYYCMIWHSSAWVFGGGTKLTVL
VH: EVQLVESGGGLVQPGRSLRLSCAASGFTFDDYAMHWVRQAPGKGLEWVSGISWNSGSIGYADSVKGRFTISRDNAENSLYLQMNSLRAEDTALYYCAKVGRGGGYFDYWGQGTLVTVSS

Each variant is given by its three heavy chain CDRs, as the data file delimits them; those of the parent are GFTFDDYAMH, GISWNSGSIGYADSVK, VGRGGGYFDY.
Every variant below is changed at S57 of the VH (sequential numbering).
The Kd shown is the geometric mean over detected replicates; a lower Kd is a better binder.
"no signal" marks a missing value. The strain was present, yet no cells mated with the target were sequenced in any replicate, which points to weak or no binding.
Three control strains display no target. For library AAYL51, 21% of the pairings with them gave a signal, with a median of 34 µM and one signal in twenty below 1.8 µM, so weak values seen in few replicates may be background.

CDR-H1	CDR-H2	CDR-H3	Kd (apparent)	seen in
GATFDDYAMH	GISWNSGFIGYAHSVK	VGRGGGYFDY	32 µM	2 of 3
GFTFDDYAMH	GIHWNSGQIGYEDSVK	VGRGGGYFDY	no signal	0 of 3
GFTFDDYAMH	GISWNSGRIGYADSVK	GKRGGGYFDY	no signal	0 of 3
GFTFDDYAMR	GISWNIGLIGYADSVK	VGRGGGYFDY	49 µM	1 of 3
GFTFDDYAMH	GISWNSGIIGYADSVK	VMRGGGYFAY	22 µM	2 of 3
GFTFCDYAMH	GISWNSGKIGYADSVK	VGRGGGYFDV	44 µM	1 of 3
GFTFDNYAMH	GISWNSGVIGYADSVQ	VGRGGGYFDY	870 nM	3 of 3
GFTFDDYAMH	GISWNSGAIGYNDSVK	VGRGGGYFDY	500 nM	3 of 3
GFTFDDYAMH	GISWNSGPIGYADSHK	VGRGGGTFDY	33 µM	2 of 3
GFTFDDYYMH	GISWNSGQIGYADSVK	VGQGGGYFDY	no signal	0 of 3
GFTFDDYAMH	GISWNSGGIGYADSVK	VGRGGGIWDY	no signal	0 of 3
GETFDDYAMH	GISWNSGDIGYADSVK	VLRGGGYFDY	no signal	0 of 3
GFNFDDYAMH	GISWNGGKIGYADSVK	VGRGGGYFDY	440 nM	2 of 3
GFTFDDYAMH	GISWNSGFIGYADSVK	VGRGGGYFDF	4.7 µM	2 of 3
GFTFDDSAMH	GISWNSGAIGYADSVK	VGRIGGYFDY	14 µM	2 of 3
IFTFDDYAMH	GISWNSGIIGYADSVK	VGRGGGYFDY	94 µM	2 of 3
GFTFDDYAMH	GIRWNSGPIGYADSVK	VGRGGGYFDY	46 µM	2 of 3
GFTFDDYAMH	GISWNSGGIGYADSVP	VGRGHGYFDY	no signal	0 of 3
GFTFDDYAMH	GISWNSGRIIYADSVK	VTRGGGYFDY	no signal	0 of 3
GFTFWNYAMH	GISWNSGIIGYADSVK	VGRGGGYFDY	2.8 µM	3 of 3
GFTFDDYAPH	GISWNSGQIGYADSVK	VGRGGGYEDY	1.6 mM	1 of 3
GFTFDDYAMH	GISWNSGIIGYADSVK	SGRGGGYFDY	no signal	0 of 3
GFTFRDFAMH	GISWNSGGIGYADSVK	VGRGGGYFDY	1.1 µM	3 of 3
GFTFDDYAMH	GIEWNSGNIGYADSVK	VERGGGYFDY	no signal	0 of 3
GFTFDDYAMH	GISWNSGQIGYADSVE	LGRGGGYFDY	24 µM	3 of 3
GFTFTDYAMH	GISWNSGKIGYADSVK	VGSGGGYFDY	5.2 µM	3 of 3
GFTMDDYAMH	GISWNSGAIGYADSYK	VGRGGGYFDY	5.4 µM	1 of 3
GFTFDDYAMH	GISWNSGVIGYADSMK	VGRHGGYFDY	no signal	0 of 3
GFTFDDYAMH	GISWKQGAIGYADSVK	VGRGGGYFDY	no signal	0 of 3
GFTFSDYAIH	GISWNSGGIGYADSVK	VGRGGGYFDY	520 nM	3 of 3
GFTFDDYASH	GISYNSGHIGYADSVK	VGRGGGYFDY	1.1 µM	1 of 3
GFTFDDYAMH	GISWNSGHIGYADSAK	VGRGGGEFDY	36 µM	3 of 3
GFTFDDYAMH	GISWNSGEIGYADSVK	VKRGGGYFFY	no signal	0 of 3
GFTFDDYPMH	GISWNSGRIGYADSYK	VGRGGGYFDY	25 µM	2 of 3
GFTFDDYAMH	GTSWNSGWIGYADSVK	VGRGRGYFDY	8.8 µM	1 of 3
GFTFDDYAMH	GISWNSGIIGYADSVK	VGRGGGYFDY	4.7 µM	2 of 3
RFTFDDYAMH	GISWNSGGIGYADSVK	VGRGGGYIDY	no signal	0 of 3
GFTFDDYAMH	GISWNSGFIGYADSVK	VGRAGGYFDQ	no signal	0 of 3
GFTFDDYAMH	GISWNSGQIGYADSVK	VGRGGGQFDY	17 nM	3 of 3
GMTFHDYAMH	GISWNSGYIGYADSVK	VGRGGGYFDY	5.4 µM	2 of 3
GFTFDDYAMH	GISWNSINIGYADSVK	VGSGGGYFDY	70 nM	3 of 3
PFTFDDYAMH	GISWNSGFIGYADSVK	VGRGGDYFDY	5.2 µM	1 of 3
GMTYDDYAMH	GISWNSGEIGYADSVK	VGRGGGYFDY	no signal	0 of 3
GFTFDDYAMH	GISWNSGMIGYWDSVK	VGRGGGYFDY	87 µM	2 of 3
GFTFDDYAMH	NISWNSGDIGYLDSVK	VGRGGGYFDY	670 µM	3 of 3
GFTFDDYAMH	GISWNSGAIGYYDSVK	VIRGGGYFDY	45 µM	1 of 3
GFTFDDYAMH	GISRNSGYQGYADSVK	VGRGGGYFDY	3.6 µM	1 of 3
GFTFDDYAMW	GISWNSGPIGYADSVK	VNRGGGYFDY	1.5 µM	1 of 3
GFTFNDYAMS	GISWNSGWIGYADSVK	VGRGGGYFDY	120 µM	2 of 3
GFRMDDYAMH	GISWNSGKIGYADSVK	VGRGGGYFDY	96 µM	3 of 3
GFTFNDYAMH	GISWNSGAIYYADSVK	VGRGGGYFDY	no signal	0 of 3
GFTFDDYAMH	GISWNSGDIGYYDSVK	VGRGGGNFDY	no signal	0 of 3
GFTFDDYAMH	GISWNSGDNGYADSVK	VWRGGGYFDY	10 nM	3 of 3
GFTFDDYAMH	GISWNSGPIGYADSVK	VGRGVGYDDY	9.5 µM	1 of 3
GFTFDDYAMH	GQSWNLGQIGYADSVK	VGRGGGYFDY	no signal	0 of 3
GFTTDDYAMH	GISWNSGQIGYADSVK	VGRGGSYFDY	no signal	0 of 3
GFTFDDYAMH	GISWNMGPIMYADSVK	VGRGGGYFDY	17 µM	1 of 3
GFTFDDYAMH	GRSWNSGRIGYACSVK	VGRGGGYFDY	8.9 µM	1 of 3
GFTFNDYAMH	GISWNSGVIGYADSVK	VGPGGGYFDY	6.4 µM	3 of 3
GFTFDDYANH	GISWNCGCIGYADSVK	VGRGGGYFDY	no signal	0 of 3
GFTFDDYAMH	GISWNSGYIGYADSVK	VGRFGGSFDY	10 µM	3 of 3
GFTFDDYEMH	GISWNSGDIGYADTVK	VGRGGGYFDY	480 µM	1 of 3
GFTFDDYAMH	GISWNSGMIGEADSVK	VGMGGGYFDY	no signal	0 of 3
GFTFDDYAMH	GISWNSGVIGYADSVK	VGRGGGYFMY	78 µM	2 of 3
GFTFDDYAMH	GISWNVGAIGYADSVK	VGRGGGYFDY	no signal	0 of 3

Extract of 5 entries:

CDR-H1,CDR-H2,CDR-H3,Kd (apparent),seen in
GFTFDDYAMH,GISWNSGRIGYADSVK,GKRGGGYFDY,no signal,0 of 3
GFNFDDYAMH,GISWNGGKIGYADSVK,VGRGGGYFDY,440 nM,2 of 3
GFTFDDSAMH,GISWNSGAIGYADSVK,VGRIGGYFDY,14 µM,2 of 3
GFTFDDYAMH,GISWNSGGIGYADSVP,VGRGHGYFDY,no signal,0 of 3
GFTFDDYAMH,GISWNSGAIGYYDSVK,VIRGGGYFDY,45 µM,1 of 3

Parent in this assay: reference entry 72 nM, copy in this library 7.5 nM.